In test [1] the test system is polyubiquitinated GFP-FAN1. The test is described as follows: in vitro deubiquitination assay. The format is biochemical, human. The note with it: immune-purified from HEK293T, DUB buffer 50 mM Tris-HCl pH 7.5, 2 h at 37 °C. The method, then: HEK293T cells were co-transfected with plasmids encoding HA-ubiquitin wt and GFP-FAN1 wt, respectively. 24 h after transfection, cells were washed twice with cold PBS and directly lysed in 1 ml of RIPA buffer (50 mM Tris-HCl pH 7.5, 150 mM NaCl, 1% IGEPAL, 0.5% sodium deoxycholate, 0.1% SDS) supplemented with 2 mM MgCl2, cOmplete inhibitor cocktail (Roche), phosphoSTOP (Roche), 25U/ml benzonase, 0.1 mM PMSF and 20 mM N-ethylmaleimide (NEM). Lysates were incubated for 5 min at room temperature and then centrifuged at 15000 g for 15 min. Between 1 and 3 mg of lysates were incubated with ChromoTek GFP-Trap® Agarose resin (Proteintech) for 2 h or overnight at 4 °C. Beads were then collected by centrifugation, washed once with RIPA buffer, two times with NTEN 500 (0.5% NP-40, 0.1 mM EDTA, 20 mM Tris-HCl pH 7.4 and 500 mM NaCl), once with TEN300 and four times with TEN100 buffer. Beads were then equilibrated in DUB buffer (50 mM Tris-HCl, pH 7.5, 50 mM NaCl, 1 mM MgCl2, 1 mM DTT), equally distributed in reaction tubes and incubated with purified recombinant His-USP7 for 2 h at 37 °C at low rpm. The unbound fraction (supernatant) was separated from the affinity resin following centrifugation, and the reaction was blocked by the addition of 5x SDS sample buffer. Samples were boiled and analysed by SDS-PAGE followed by immunoblotting.

In the next test the test system is FAN1-NTD. The test is described as follows: GST pull-down. The format is binding, human. Particulars: GST-FAN1-NTD (aa 1-372), 0.5 µg USP7, 1 h at 4 °C. How it is done:
For GST pull-down assays, GST fusion plasmids were transformed in BL21 RIL (CodonPlus) E. coli (Stratagene) and recombinant proteins were expressed by incubating the bacteria for 24 h at 16 °C after the addition of 100 μM IPTG. After centrifugation, the bacterial pellet was resuspended in cold PBS, supplemented with 1% Triton X-100 and protease inhibitors (1 mM PMSF, 1 mM benzamidine, and cOmplete™ Protease Inhibitor Cocktail). After sonication and centrifugation, GST-tagged FAN1 was purified from soluble extracts using Glutathione Sepharose 4 Fast Flow beads (GE Healthcare). GST fusion proteins bound to glutathione beads were mixed with 0.5 µg of human recombinant USP7 (R&D Systems) and incubated for 1 h at 4 °C in 1 ml of PBS-1% Triton. Beads were then washed three times with NTEN300 buffer (0.5% NP-40, 0.1 mM EDTA, 20 mM Tris-HCl pH 7.4 and 300 mM NaCl) and once with TEN100 (20 mM Tris-HCl pH 7.4, 0.1 mM EDTA and 100 mM NaCl) buffer. Recovered complexes were boiled in SDS sample buffer and analysed by SDS–PAGE followed by immunoblotting.

“recombinant USP7: human recombinant full-length USP7 (R&D Systems # E-519)”: the “deubiquitination of polyubiquitinated GFP-FAN1” value in test [1] is given as “deubiquitinates”. Besides, the “physical interaction with FAN1-NTD” value in the test on FAN1-NTD is given as “confirmed a physical interaction”.
